# Results as given in article PMC11784200, “Insights into antibiotic resistance promoted by quinolone exposure” (Antimicrobial Agents and Chemotherapy, 2024).
# Tested on: E. coli MG1655
# Experiment: microbe, parasite or virus in culture
# Assay type: cell-based
# Details: Escherichia coli, MG1655, read-out: Solid-agar MIC
# Description: Minimum inhibitory concentration (MIC) values were determined in triplicate as described ([55]). […] All compounds were purchased from Sigma.
smiles,measurement,value
"COc1cc(Cc2cnc(N)nc2N)cc(OC)c1OC [TMP, trimethoprim]",MIC,0.4 µg/mL
